Assay results from patent US20080070859A1, “Compounds resistant to metabolic deactivation and methods of use” (priority 2002, published 2008).

Tests used:
[1] = HPLC stability analysis: hydrolysis of the prodrug to Cordycepin in phosphate buffer; assay type: physicochemical; details: 0.63 mM in 30 mM phosphate buffer (pH 7.3) containing 5% DMSO, 37 C
Method: To analyze the half-life of thioaminal prodrugs, HPLC stability analysis was performed on the following Cordycepin prodrugs. Solutions (0.63 mM) of each of the following compounds was prepared in 30 mM phosphate buffer (pH 7.3) containing 5% DMSO and incubated at 37 C.

[2] = tested on: Leukemia cell lines (MOLT, HL-69, and CEM/Cl); assay: MTT assay of cell viability, overall comparison with Cordycepin; details: both in the presence and absence of ADA inhibitor
Method: The in vitro cytotoxicities of thioaminal prodrugs of Cordycepin were compared to the parent drug Cordycepin using a standard MTT assay of cell viability (Hansen et al. (1989) J. Immunol. Meth. 119:203-10). Leukemia cell lines growing in the exponential phase (MOLT, […], and CEM/Cl) were plated at a final concentration of 1×10^5 cells/ml and exposed to serial dilutions of the Cordycepin prodrugs. In a subset of the experiments (denoted by “+”), the cells were preincubated with 1 μM of the ADA inhibitor 2′-deoxycoformycin for 30 minutes prior to addition of prodrug. Cell viability was determined after incubation for 5 days at 37 C by addition of 3-(4,5-dimethylthizaol-2-yl)-2,5-diplenyl-tetrazolium dye. IC50 was defined as the drug concentration that reduced cell viability 50% in comparison with the appropriate control.

6-N-(4-N-acetylbenzylthio)methyl-Cordycepin [8b]
t½ (time point at which half of the Cordycepin prodrug was hydrolysed to Cordycepin) [1]: 28 h
cytotoxic potency compared to Cordycepin [2]: more potent cytotoxic agents than Cordycepin
